Test results reported in PubChem BioAssay AID1508642 (National Center for Advancing Translational Sciences (NCATS), 2021).
The entries are a selection whose mix differs from that of the whole data set. Inconclusive results are not listed. Calls of active or inactive are those of the source. Calls follow the shape of the dose curve; as a rule, active = well fitted cell-killing curve with a large enough effect; inconclusive = small, poorly fitted or top-dose-only effect, or effect the other way; inactive = flat fitted curve, though single readings scatter.

Experiment: Cell viability qHTS assay in S16 Pmp22-F2sN cells; also: nearly all actives have a fitted effect of over 65% in size
Conditions: S16 Pmp22-F2sN Schwann cells (luciferase reporters placed in the Pmp22 gene) viability, CellTiter-Glo, 24 h; at 57.5 µM (top of the series)
From the text: Assay Provider: Jim Inglese Ph.D. National Center for Advancing Translational Science, National Institutes of Health, Rockville, MD CMT is a heterogeneous group of neurological disorders that affect approximately 1 in 2,500 people. In particular, the most common form of CMT, CMT1A is genetically linked to the duplication of the PMP22 gene which leads to Schwann cell overexpression, thus manifesting itself as a typical case of dose-sensitive diseases. To identify small molecule compounds that can mediate the expression of PMP22 we developed a phenotypic assay screening strategy by utilizing genome editing techniques to construct Schwann cell lines containing novel reporter technology to monitor the transcriptional or translational regulation of PMP22. For high sensitivity we use a bioluminescent reporter system embedded in the 3' UTR of the PMP22 gene (S16(c9) Pmp22-F2sN) to identify compounds that inhibit gene expression. […] We can further discriminate the effect of all transcriptionally active molecules on PMP22 translation or stability with an assay that incorporates a short NLuc peptide (HiBiT) at the C-terminus of expressed PMP22 (S16(f8) PMP22-HiBiT) allowing alpha complementation and luminescence detection of membrane-associated PMP22 protein. These assays were screened against the NCATS Sytravon Library Collection. Miniaturization of these assays to 1536-well plate format for quantitative high throughput screening (qHTS) yielded rich data sets immediately from the qHTS assay (S16(c9) Pmp22-F2sN), when compared with data from a cell viability assay (Cell TiterGlo) to identify compounds that decreased the output signals through cellular toxicity to streamline the selection process of actives for subsequent characterization using the HiBiT assay (S16(f8) PMP22-HiBiT).
Cell viability assay in S16 Pmp22-F2sN cells PROTOCOL TABLE (format as described by Inglese J, Shamu CE and Guy RK. 2007) SEQUENCE No. (e.g., 1, 2, 3, etc.); […] (e.g., Cells, Incubation, Reagent, etc.); VALUE and DESCRIPTION. 1. Cells. Add 500-1,000 cells in 4 uL in growth media (DMEM High Glucose, No Phenol Red media + 10% heat-inactivated FBS + 1% Pen/Strep supplemented media) per well into Greiner 1536-well white/solid bottom high base, TC-treated plates. 2. Compounds. Library compounds and controls added at 23nL per well, transferred by Pin Tool. 3. Incubation. Incubate plates at 37C, 5% CO2, 95% RH for 24 h. 4. Reagent. Add 3uL CellTiter-Glo per well of Greiner 1536-well plates. 5. Incubation. Incubate plates at room temperature for 15 min., protect from light. 6. Detector. FLuc luminescence measured using CCD-based camera (Viewlux). NOTES (numbers refer to Sequence numbers above; values are from representative experiments) 6. Luminescence Read: Clear filter; Exposure = 1 sec, Gain = High, Speed = Slow, Binning = 2X REFERENCES: 1. Inglese J, Shamu CE and Guy RK, Reporting data from high throughput screening of small molecule libraries, Nature Chemical Biology, 2007, 3(8): 438-441. doi.org/10.1038/nchembio0807-438 2. Yasgar A, Shinn P, Jadhav A, Auld DS, Michael S, Zheng W, Austin CP, Inglese J and Simeonov A, Compound Management for Quantitative High-Throughput Screening. J. Assoc. Lab. Auto., 2008, 13: 79-89. doi: 10.1016/j.jala.2007.12.004
% is scaled to controls: 0 for no effect and ±100 for the full control effect.

Compound | activity change, negative = cytotoxicity
O=C(NCC1(N2CCOCC2)CCCCC1)c1ccccc1[N+](=O)[O-] | inactive: 2.68%
O=C(NCC1(N2CCOCC2)CCCCC1)c1ccc([N+](=O)[O-])cc1 | inactive: 19.4%
O=C(NCC1(N2CCOCC2)CCCCC1)c1ccccc1 | inactive: 20%
COc1cc(C(=O)NCC2(N3CCOCC3)CCCCC2)cc(OC)c1OC | inactive: 23.6%
CN(C)C1(CNC(=O)c2ccc(C(C)(C)C)cc2)CCCCC1 | inactive: -0.632%
Cc1ccccc1C(=O)NCC1(N(C)C)CCCCC1 | inactive: 0.0976%
CC(C)(C)c1ccc(C(=O)NCC2(N3CCOCC3)CCCCC2)cc1 | inactive: -0.424%
COc1ccccc1C(=O)NCC1(N2CCOCC2)CCCCC1 | inactive: 27.6%
O=C(NCC1(N2CCOCC2)CCCCC1)c1ccc(Cl)cc1 | inactive: 13.8%
CCCCOc1ccccc1C(=O)NCC1(N2CCOCC2)CCCCC1 | inactive: -5.61%
O=C(NCC1(N2CCOCC2)CCCCC1)c1ccccc1Br | inactive: 30%
CCOc1ccc(C(=O)NCC2(N3CCOCC3)CCCCC2)cc1 | inactive: 27.1%
